From patent EP4831170A1, “NITROGEN HETEROCYCLIC COMPOUND AND USE THEREOF” (dated 2026)

Tests used:
[1] = system: senescent cells (A549 cells); assay: Senescent cell viability assay (CellTiter-Glo), etoposide-induced senescent A549 cells; details: read-out: IC50 (µM, senescent cells), A549 cells made senescent with etoposide (10 µM), 72 h incubation
[2] = Kinetic solubility in PBS, LC-MS/MS; details: 100 mM PBS, 1 hour shaking at room temperature

IC50 [1] | Kinetic solubility [2] | SMILES
1 to 10 µM |  | CC1C(c2ccc(N3CCc4ccnc(C(=O)Nc5nc6ccccc6s5)c4C3)nc2C(=O)O)CCN1CC12CC3CC(CC(C3)C1)C2 (centres unmarked)
< 0.2 µM |  | Cc1c(-c2ccc(N3CCc4ccnc(C(=O)Nc5nc6ccccc6s5)c4C3)nc2C(=O)N2CCC(OP(=O)(O)O)CC2)cnn1CC12CC3CC(CC(C3)C1)C2
< 0.2 µM |  | COC(=O)C12CC3CC(CC(Cn4ncc(-c5ccc(N6CCc7ccnc(C(=O)Nc8nc9ccccc9s8)c7C6)nc5C(=O)O)c4C)(C3)C1)C2
 | 0.021 µM | Cc1c(-c2ccc(N3CCc4cccc(C(=O)Nc5nc6ccccc6s5)c4C3)nc2C(=O)O)cnn1CC12CC3CC(CC(C3)C1)C2
< 0.2 µM |  | Cc1c(-c2ccc(N3CCc4ccnc(C(=O)Nc5nc6ccccc6s5)c4C3)nc2C(=O)N2CCC(COP(=O)(O)O)CC2)cnn1CC12CC3CC(CC(C3)C1)C2
